Data on twelve compounds can be found in ChEMBL document CHEMBL2346538, “Synthesis, cyclooxygenase inhibitory effects, and molecular modeling study of 4-aryl-5-(4-(methylsulfonyl)phenyl)-2-alkylthio and -2-alkylsulfonyl-1H-imidazole derivatives” (Bioorg Med Chem, 2013).

By UniProt entry, the sequences of proteins in these tests, tags left out.
UniProt P23219, whole entry: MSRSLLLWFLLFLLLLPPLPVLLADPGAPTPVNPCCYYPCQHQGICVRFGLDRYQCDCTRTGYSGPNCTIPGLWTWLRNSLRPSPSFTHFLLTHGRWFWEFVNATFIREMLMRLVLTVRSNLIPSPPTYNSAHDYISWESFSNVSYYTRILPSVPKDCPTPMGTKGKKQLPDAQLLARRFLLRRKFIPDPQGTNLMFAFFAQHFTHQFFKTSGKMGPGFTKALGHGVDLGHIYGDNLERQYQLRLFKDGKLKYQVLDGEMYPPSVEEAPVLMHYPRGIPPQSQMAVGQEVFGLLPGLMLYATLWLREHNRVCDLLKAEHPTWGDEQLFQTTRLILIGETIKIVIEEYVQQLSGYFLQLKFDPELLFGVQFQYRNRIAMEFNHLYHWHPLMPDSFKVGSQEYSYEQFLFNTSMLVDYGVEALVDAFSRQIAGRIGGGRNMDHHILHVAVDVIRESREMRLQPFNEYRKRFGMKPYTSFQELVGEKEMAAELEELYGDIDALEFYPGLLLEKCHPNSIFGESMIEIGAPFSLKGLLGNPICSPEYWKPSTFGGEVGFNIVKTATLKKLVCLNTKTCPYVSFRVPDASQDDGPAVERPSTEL

Experiment [1] deals with Prostaglandin G/H synthase 1 (Homo sapiens, UniProt P23219).
The species named for another experiment is Homo sapiens. The experiment in a line: Selectivity index, ratio of IC50 for COX1 in human blood to IC50 for COX2 in human blood.

Usually IC50 stands for the concentration needed to halve the response being measured. The low end stands for higher potency, the high end for lower potency. `CSc1nc(-c2ccccc2)c(-c2ccc(S(C)(=O)=O)cc2)[nH]1` showed an IC50 in experiment [1] of 160 nM.
On the same count and under the same terms, the value for `CS(=O)(=O)c1ccc(-c2[nH]c(S(C)(=O)=O)nc2-c2ccccc2)cc1` was 340 nM.
For the compound `CSc1nc(-c2ccc(F)cc2)c(-c2ccc(S(C)(=O)=O)cc2)[nH]1`, in the experiment filed under Homo sapiens, the Ratio IC50 was found to be 3.07. For the same compound, the IC50 in experiment [1] stood at 210 nM.
On to `CCS(=O)(=O)c1nc(-c2ccccc2)c(-c2ccc(S(C)(=O)=O)cc2)[nH]1`, for which, in experiment [1], the midpoint of inhibition, the IC50, lay at 360 nM.
The same measure, in the same setting: the value for `CS(=O)(=O)c1ccc(-c2[nH]c(S(C)(=O)=O)nc2-c2ccc(F)cc2)cc1` was 390 nM; that for `CCS(=O)(=O)c1nc(-c2ccc(F)cc2)c(-c2ccc(S(C)(=O)=O)cc2)[nH]1` was 400 nM.
For the compound `CCSc1nc(-c2ccc(Cl)cc2)c(-c2ccc(S(C)(=O)=O)cc2)[nH]1`, the Ratio IC50 in the experiment listed under Homo sapiens is 3.39. For the same compound, the IC50 in experiment [1] was 390 nM.
Consider `CS(=O)(=O)c1ccc(-c2[nH]c(S(C)(=O)=O)nc2-c2ccc(Cl)cc2)cc1`, for which half-maximal inhibition in experiment [1] (IC50) was put at 420 nM.
In experiment [1], `CSc1nc(-c2ccc(Cl)cc2)c(-c2ccc(S(C)(=O)=O)cc2)[nH]1` yielded an IC50 of 320 nM.
As for `CCSc1nc(-c2ccccc2)c(-c2ccc(S(C)(=O)=O)cc2)[nH]1`, in experiment [1], inhibition was half-maximal at 170 nM (IC50).
In experiment [1], `CCS(=O)(=O)c1nc(-c2ccc(Cl)cc2)c(-c2ccc(S(C)(=O)=O)cc2)[nH]1` showed an IC50 of 440 nM.
`CCSc1nc(-c2ccc(F)cc2)c(-c2ccc(S(C)(=O)=O)cc2)[nH]1` returned an IC50 in experiment [1] of 240 nM.
